# Antibody variant affinities, Ab-14 light chain, assay 1

The measurements come from Engelhart et al. 2022 (doi:10.1038/s41597-022-01779-4) through the FLAb antibody collection.

The target is the same throughout: PDVDLGDISGINAS, from the HR2 region of SARS-CoV-2 spike.

Each scFv is VH, the linker GGGGSGGGGSGGGGS, VL, as in the parent Ab-14, and differs from it in the CDRs of the light chain only.
VH: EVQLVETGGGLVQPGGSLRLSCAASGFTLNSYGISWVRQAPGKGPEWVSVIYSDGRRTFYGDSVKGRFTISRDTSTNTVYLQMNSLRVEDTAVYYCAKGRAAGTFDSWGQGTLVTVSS
VL: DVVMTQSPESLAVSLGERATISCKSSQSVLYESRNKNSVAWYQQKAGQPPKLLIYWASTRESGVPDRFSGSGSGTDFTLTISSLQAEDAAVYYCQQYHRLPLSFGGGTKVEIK

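In library AAYL50, one, two or three CDR residues were substituted; doubles and triples were drawn at random. AlphaSeq pools MATa yeast showing the antibodies with MATalpha yeast showing the peptide. Pairs that bind mate more often; barcode pairs of the diploids are counted by sequencing. Each replicate has its own calibration line, from reference interactions of the BCL2 family. There are three technical replicates.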

Changes read parent residue, position, new residue, counted from the first residue of the VL shown.
The read-out is the apparent dissociation constant on a log10 scale (nM): the lower, the stronger.
An entry "ND" has no value in the source: the pair was not observed among the diploids in that replicate. This suggests poor binding but is not conclusive.
In this assay the parent's reference entry averaged 0.65; its copy inside this library read 1.68.
Empty control strains, which show no peptide, gave a signal in 18% of pairings with library AAYL50; the median was 4.19 and 95% of these signals were weaker than 2.99. No background was subtracted. For each scFv, signals with the empty controls are counted beside the result, with their mean in brackets.

changes | log10 Kd, replicates | control signals
S28R/S33P/V39L | 2.34 1.98 2.32 | 1 of 9 (3.74)
V39P/A57Q/T59K | ND ND ND | 0 of 9
R34K/R99G/P101S | 1.57 1.56 1.89 | 3 of 9 (3.97)
E32D/R60F/Q95R | ND ND ND | 0 of 9
Q27F/K36A/Q96S | ND ND ND | 0 of 9
A57Q/S62D/S103N | ND ND ND | 0 of 9
Y31F/N35L/Y97D | ND ND ND | 1 of 9 (2.71)
L30F/R34G/T59N | 0.65 0.75 0.83 | 3 of 9 (4.10)
S25P/S26M/S28C | 5.79 3.68 4.35 | 3 of 9 (4.38)
A57I/Q95D/Q96W | 4.63 ND 4.56 | 0 of 9
R34L/W56E/Q95F | -0.30 0.09 -0.32 | 0 of 9
V29R/N35G/Q96R | ND ND ND | 1 of 9 (4.56)
A40R/A57T/L100G | ND ND ND | 0 of 9
S25A/N37Y/L102D | 0.89 1.06 0.99 | 5 of 9 (4.27)
S62L/Y97W/S103M | 0.49 0.72 0.66 | 2 of 9 (3.67)
Y97P/S103I | ND ND ND | 5 of 9 (4.61)
S26I/A40R | ND ND ND | 0 of 9
E32H/K36W/W56H | 0.61 0.70 0.63 | 1 of 9 (1.85)
V29L/Q96E/R99P | ND ND ND | 0 of 9
K24I/L102I | 1.51 1.47 1.54 | 0 of 9
S62M/Y97W | ND ND 5.21 | 0 of 9
N35S/E61M/P101T | ND ND ND | 0 of 9
Q27Y/W56H/S62C | ND ND ND | 2 of 9 (4.65)
S26W/S38D/W56A | 0.84 1.13 1.13 | 1 of 9 (3.60)
V29T/S38T/Q95C | ND ND ND | 0 of 9
T59G/S62V/P101T | ND 1.94 2.74 | 0 of 9
S28K/W56P | ND ND ND | 1 of 9 (3.87)
E32V/A57D/Q95E | ND ND ND | 1 of 9 (5.10)
S62T/R99E/P101V | ND ND ND | 3 of 9 (3.94)
S25P/V29Y/R34M | 1.26 1.46 1.58 | 1 of 9 (5.45)
S33M/R34T/E61K | 1.03 0.96 1.14 | 1 of 9 (2.36)
A57S/R60G/E61V | ND ND ND | 4 of 9 (3.97)
S26Q/L30Q/S38G | ND ND ND | 0 of 9
E32L/S62P/P101S | ND ND ND | 0 of 9
E32M/S58C/R60T | ND ND ND | 0 of 9
R34Y/R60P/S62N | 1.87 1.87 1.89 | 5 of 9 (4.12)
V39F/T59K | ND ND ND | 3 of 9 (3.74)
L30C/T59W/R60D | ND ND ND | 0 of 9
Y31I/N35Q | 1.14 1.30 1.26 | 4 of 9 (5.15)
S58C/S62P/Y97F | ND ND ND | 0 of 9
S28W/Q95M/L100T | ND ND ND | 3 of 9 (4.70)
A40F/R99E/L100W | ND ND ND | 1 of 9 (3.14)
N35H/S58L/T59Y | 5.07 3.45 ND | 2 of 9 (4.20)
K36N/A40C/Q95H | ND 4.30 ND | 2 of 9 (4.76)
Q27G/V39I/S62P | 0.85 1.04 0.94 | 4 of 9 (4.51)

From the list, the first 8 with no signal in any replicate:

changes | log10 Kd, replicates | control signals
V39P/A57Q/T59K | ND ND ND | 0 of 9
E32D/R60F/Q95R | ND ND ND | 0 of 9
Q27F/K36A/Q96S | ND ND ND | 0 of 9
A57Q/S62D/S103N | ND ND ND | 0 of 9
Y31F/N35L/Y97D | ND ND ND | 1 of 9 (2.71)
V29R/N35G/Q96R | ND ND ND | 1 of 9 (4.56)
A40R/A57T/L100G | ND ND ND | 0 of 9
Y97P/S103I | ND ND ND | 5 of 9 (4.61)